Source: PMC5962729, “Yinchenhao Decoction Ameliorates Alpha-Naphthylisothiocyanate Induced Intrahepatic Cholestasis in Rats by Regulating Phase II Metabolic Enzymes and Transporters” (Frontiers in Pharmacology, 2018)

Assay: Identification of components and metabolites of YCHD in rat plasma, bile, urine and feces (UHPLC/Q-TOF-MS)
Format: in vivo
Settings: rats, oral YCHD 12 g/kg, urine, feces
Description: After centrifuging at 4000 rpm for 10 min, supernatant plasma was harvested into heparinized tubes and then stored at -20°C for preservation. The rats in the second group (n = 6) were kept individually in metabolic cages to collect urine and feces. […] Subsequently, the rats were orally administered a single dose of YCHD (12 g/kg of body weight). […] For the third group of rats (n = 6), bile duct intubation was implemented, and blank bile samples were collected before administration. After the administration of YCHD at 12 g/kg of body weight, the drug-containing bile samples were collected.
Plasma, bile, and urine samples (200 μL each) were separately precipitated with six times of methanol–acetonitrile mixed solution (v/v, 1:1; containing 1% formic acid). After being vortex mixed for 5 min and centrifuged at 15,000 rpm for 5 min at 4°C, the supernatant was separated into another clean tube and dried under a gentle stream of nitrogen at 45°C. Subsequently, the residue was reconstituted in 100 μL of 50% methanol–water (v/v) and then vortex mixed for 10 min. After another round of centrifugation at 15,000 rpm for 5 min at 4°C, 5 μL of the supernatant was analyzed by UHPLC-MS/MS. A 0.5 g sample of naturally dried feces was supplemented with 2 mL of 80% methanol–water (v/v) and then ultrasonically extracted for 30 min at 4°C. After being centrifuged at 15,000 rpm for 10 min, the supernatant was dried under a gentle stream of nitrogen at 45°C. Finally, the residue was reconstituted in 1 mL of 50% methanol–water (v/v) and then vortex mixed for 10 min. After another round of centrifugation at 15,000 rpm for 5 min at 4°C, 5 μL of the supernatant sample was injected into the UHPLC-MS/MS system for analysis.
Separations were conducted on an Agilent SB-C18 column (2.1 mm × 50 mm, 1.8 μm) of a UHPLC/Q-TOF-MS system (Waters, Corp., Milford, MA, United States) maintained at 40°C.
A Synapt G2 quadrupole time-of-flight (Q/TOF) MS/MS system (Waters, Corp., Manchester, United Kingdom) equipped with an electrospray ionization (ESI) interface was operated in negative ionization mode and controlled by MassLynx software (Version 4.1). The optimized conditions for maximum detection of metabolites were as follows: the capillary voltage was set at 3.0 kV, extraction cone voltage was set at 10 and 15 V, source temperature was maintained at 120°C, and desolvation temperature was maintained at 450°C. […] An MS^E approach using a dynamic ramp of collision energy was also applied at two (low and high collision energies) scan functions. […]

Substance	Source (biological samples in which the compound was identified)
Caffeic acid-O-SO3 [M4]	Urine, feces
Caffeic acid-O-gluA [M5]	Plasma, bile, urine
Emodin-O-gluA [M8]	Plasma, bile, urine, feces
Rhein-O-gluA [M1]	Urine
